Measured affinities in a library of Ab-95 light chain variants

The measurements come from Engelhart et al. 2022 (doi:10.1038/s41597-022-01779-4) through the FLAb antibody collection.

All variants were tested on one target, the spike HR2 peptide PDVDLGDISGINAS (SARS-CoV-2).

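The starting antibody came from a phage panning campaign against this peptide. AAYL52 was designed without a model: most single CDR substitutions and a random sample of double and triple ones. In AlphaSeq, yeast of one mating type display the scFv and yeast of the other type display the target. Binding brings cells together so that they mate, and sequencing counts the barcode pairs among the diploids. A regression on co-assayed BCL2-family reference pairs converts the normalised counts of each replicate to an apparent Kd. The assay was run in three technical replicates.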

Ab-95 is the parent antibody, in scFv form: VH, then a (GGGGS)3 linker, then VL. The heavy chain is unchanged in all variants.
VH: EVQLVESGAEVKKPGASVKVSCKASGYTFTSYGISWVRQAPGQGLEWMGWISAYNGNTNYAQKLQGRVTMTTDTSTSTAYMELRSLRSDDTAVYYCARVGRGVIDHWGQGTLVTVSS
VL: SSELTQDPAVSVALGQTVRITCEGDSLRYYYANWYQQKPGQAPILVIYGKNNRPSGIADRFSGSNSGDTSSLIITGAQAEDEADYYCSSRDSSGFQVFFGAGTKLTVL

The parent's light chain CDRs are EGDSLRYYYAN, GKNNRPS, SSRDSSGFQVF; each variant's own CDRs replace them letter for letter. Kd is apparent (estimated from mating counts) and averaged on the log scale over replicates with a signal. Smaller is tighter. A pair that was not seen in any replicate is written "nd"; this usually means weak binding, but a binder can also be missed. Background: pairings of library AAYL52 with three empty control strains gave a value in 28% of cases (median 8.2 µM, 5th percentile 800 nM). Values in that range, when seen in few replicates, are hard to tell from nonspecific mating.

CDR-L1	CDR-L2	CDR-L3	Kd (apparent)	replicates with signal
EGDSLRYYYAN	GNNSRPS	SSQDSSGFQVF	170 nM	3 of 3
EGFSLRYYYAN	GKNNRTS	SSRDSSGFSVF	14 µM	3 of 3
EGDSLRYYYAN	PKNNRPS	SSRDSSKVQVF	18 µM	1 of 3
EGWSLRYYYAN	IKNNRPS	SSVDSSGFQVF	120 µM	2 of 3
EGDSLSWYYAN	GINNRPS	SSRDSSGFQVF	1.2 µM	3 of 3
EGDILRYYYAN	GKNNRPS	LSRDWSGFQVF	2.3 µM	1 of 3
EGDSESYYYAN	GKNLRPS	SSRDSSGFQVF	91 µM	1 of 3
NGDSLRYYYAF	GKNNRPC	SSRDSSGFQVF	36 µM	1 of 3
EGDSMRYNYAN	GKNNRPS	SSRDSEGFQVF	150 nM	3 of 3
EGDSLRNYYAN	GKNNSPS	SSNDSSGFQVF	1.6 µM	3 of 3
CGDDLRYYYAN	CKNNRPS	SSRDSSGFQVF	1.1 µM	1 of 3
EGDSLRYYYNN	GQNNRPS	NSRDSSGFQVF	770 nM	3 of 3
KGDSLRYYYAN	GKNLRPS	SSRDSSGCQVF	1.3 µM	3 of 3
EGMSLYYYYAN	GKNNRPS	SSRISSGFQVF	1.1 µM	1 of 3
EGDSLRYYYAN	GKWNRES	SSRDSSGFQVF	1.6 µM	1 of 3
EGDSLRQYYAN	GKNNRSS	SYRDSSGFQVF	14 µM	2 of 3
KGDSLRYYAAN	GKNNRPS	SSRDSSSFQVF	110 nM	3 of 3
EGDSLRLYYAN	FKNNRPS	SSRDSSGFQVF	19 µM	2 of 3
EGDYGRYYMAN	GKNNRPS	SSRDSSGFQVF	7.1 µM	2 of 3
EGDSLRYGYAN	GKNNRPS	SSRDSGGFQTF	5.8 nM	3 of 3
EGDSLRYYYEN	GQNNRPS	SSDDSSGFQVF	nd	0 of 3
EGDSLRYYYQC	GKNLRPS	SSRDSSGFQVF	240 nM	3 of 3
EGDSLRYYYAN	GKNIRPS	SSRDYSGFQYF	13 µM	2 of 3
EGDSLRYYYAN	GKNNRPS	SSSDSSYFQKF	5.9 µM	3 of 3
EGDSLRYYLMN	GANNRPS	SSRDSSGFQVF	420 nM	3 of 3
EGDHLRYYYAN	GKNNRDS	SSRDSRGFQVF	nd	0 of 3
EGDSLRYYYAY	GKGNRPS	ASRDSSGFQVF	370 nM	3 of 3
EGDSLQYYYAN	GKNNRPS	SSRMSSGFWVF	1.1 µM	3 of 3
EGDSLRYYYRN	KKNNRPS	SSMDSSGFQVF	7.4 µM	2 of 3
EVDSLRYYYAN	GKNARPS	SSRESSGFQVF	30 µM	3 of 3
EGDSLRYYYAN	GKNNRPS	SWRKSFGFQVF	18 µM	2 of 3
EGTSLRYYYAN	GKNNYPS	SSRDSSGFMVF	nd	0 of 3
EGDSEAYHYAN	GKNNRPS	SSRDSSGFQVF	nd	0 of 3
EGDCDRYYYAN	GKNNRPS	SSRDSSGWQVF	67 µM	2 of 3
EGDSLRYYYKN	GKNNRLS	SSRDTSGFQVF	61 µM	1 of 3
EADSLYYYYAN	GKNNRPS	SSRDSLGFQVF	25 µM	2 of 3
EGDSARYYYAN	MKNNRPS	MSRDSSGFQVF	nd	0 of 3
EGDSLRYYYAN	AKNYRPS	SSRDSEGFQVF	nd	0 of 3
EGDDLRYGYAN	GKNNRPS	SSRDSSGFDVF	68 nM	3 of 3
EGDSLRYYWAS	GKNNRPS	SSRQSSGFQVF	1.1 µM	3 of 3
EGDSLRYYYAN	GKNNRPS	SSRSSSRFQVF	20 µM	1 of 3
EGISLRVYYAN	GKNNRPS	SSRDSSGEQVF	2.3 µM	1 of 3
RGDSLRYYYAN	GKNNRPS	SSRDSSPFQVF	330 nM	3 of 3
EGDSLRVYYTN	GKNNRPS	SSRDVSGFQVF	1.8 µM	2 of 3
EGDSLRYPYGN	GKNNRPS	SSRISSGFQVF	450 nM	3 of 3
EIDSERYYYAN	GKNNRPS	SSRDSSGFPVF	790 nM	3 of 3
EGWSLRVYYAN	GKNNRPS	SSRDSSGFQVE	45 µM	1 of 3
EGDSYRYNYAN	GKNNRPS	SSRISSGFQVF	81 nM	3 of 3
EGDSLRYYYRM	GKNRRPS	SSRDSSGFQVF	10 µM	2 of 3
EGDSLRYYYAS	GPNNRPS	SSQDSSGFQVF	4.0 µM	2 of 3
EGDSLRYYYAN	GSNNRPS	SSRDPSGFQSF	5.0 µM	3 of 3
EGDGLRYYYAN	GKNNRPS	SKRDSNGFQVF	210 nM	3 of 3
EGDSIRYYYAD	GKNNRPM	SSRDSSGFQVF	3.6 µM	2 of 3
EGDCLRYYYAN	GKNNRPS	SSTDSYGFQVF	nd	0 of 3
EGDSLRYYYAC	GKNNRPS	SSRDSIGPQVF	nd	0 of 3
EGDELRYYYAN	GKNNRPS	SSRDESGFQVF	160 nM	3 of 3
EMESLRYYYAN	GNNNRPS	SSRDSSGFQVF	1.3 µM	1 of 3
EGDHLRYYYAN	YKNERPS	SSRDSSGFQVF	10 µM	2 of 3
EGDSLRYYYAN	GKNNRPS	SMRDPSGFQVC	410 nM	3 of 3
EGDSLRYYYAN	NKNQRPS	SSRDWSGFQVF	280 nM	3 of 3
EGDSLRYDYAN	GKNNRPS	SSRDSYGFQVF	37 nM	3 of 3
EGDSLRYYYAN	GKNNRPS	SSRQSSGFVVS	nd	0 of 3
EGDLLRYGYAN	GKNNRPS	SSRDSSGFQVC	780 nM	3 of 3
ETDSLRCYYPN	GKNNRPS	SSRDSSGFQVF	220 nM	3 of 3

7 of these entries, quoted again:

CDR-L1	CDR-L2	CDR-L3	Kd (apparent)	replicates with signal
EGDCDRYYYAN	GKNNRPS	SSRDSSGWQVF	67 µM	2 of 3
EGDSLRYYWAS	GKNNRPS	SSRQSSGFQVF	1.1 µM	3 of 3
EGDSLRQYYAN	GKNNRSS	SYRDSSGFQVF	14 µM	2 of 3
EGDSLRYYYAN	GKNNRPS	SMRDPSGFQVC	410 nM	3 of 3
KGDSLRYYAAN	GKNNRPS	SSRDSSSFQVF	110 nM	3 of 3
EGDSARYYYAN	MKNNRPS	MSRDSSGFQVF	nd	0 of 3
EGDGLRYYYAN	GKNNRPS	SKRDSNGFQVF	210 nM	3 of 3